This assay deals with Amyloid-beta precursor protein (Homo sapiens, UniProt P05067). Briefly: Binding affinity to human amyloid beta (1 to 42) fibril by fluorescence intensity assay. Put shortly: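 Fibrils grown from human insulin (3 mg/mL, Tris-HCl 50 mM pH 3), E. coli-expressed human α-syn (3 mg/mL, pH 7.4) or Aβ(1–42) (0.5 mg/ml, 1% NH4OH). Fibril level taken as supernatant protein depletion. Fixed fibrils (3.5–11.35) titrated with ligand (DMSO stock diluted into 50 mM Tris-HCl pH 7.4). Plate-reader intensity read at each ligand's maximal excitation/emission wavelengths, dye blanks subtracted. Kd from single-site saturation fit.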

Chains of the proteins cited; added tags and fusions are not shown.
UniProt P05067, whole entry: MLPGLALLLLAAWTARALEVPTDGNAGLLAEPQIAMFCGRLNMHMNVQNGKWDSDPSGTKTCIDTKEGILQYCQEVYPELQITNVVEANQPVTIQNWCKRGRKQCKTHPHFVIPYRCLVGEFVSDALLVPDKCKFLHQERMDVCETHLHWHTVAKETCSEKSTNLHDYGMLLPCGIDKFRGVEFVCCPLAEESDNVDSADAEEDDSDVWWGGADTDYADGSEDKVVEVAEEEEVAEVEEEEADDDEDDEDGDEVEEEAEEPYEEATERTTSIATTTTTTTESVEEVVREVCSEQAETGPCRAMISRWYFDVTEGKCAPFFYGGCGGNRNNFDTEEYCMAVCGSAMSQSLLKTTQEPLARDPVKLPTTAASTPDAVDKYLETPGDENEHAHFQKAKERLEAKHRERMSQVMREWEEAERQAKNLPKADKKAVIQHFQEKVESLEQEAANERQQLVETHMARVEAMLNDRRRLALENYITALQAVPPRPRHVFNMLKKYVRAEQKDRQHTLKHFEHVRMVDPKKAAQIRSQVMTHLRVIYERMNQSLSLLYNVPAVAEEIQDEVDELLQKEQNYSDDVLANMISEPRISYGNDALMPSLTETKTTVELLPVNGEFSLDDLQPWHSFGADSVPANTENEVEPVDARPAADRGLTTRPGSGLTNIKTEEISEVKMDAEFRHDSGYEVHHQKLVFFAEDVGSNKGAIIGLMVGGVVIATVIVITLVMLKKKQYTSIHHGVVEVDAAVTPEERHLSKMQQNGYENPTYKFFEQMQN

The structures appear in SMILES notation.

In the case of `Cc1ccc2c(c1)sc(-c1ccc(N(C)C)cc1)[n+]2C.[Cl-]` [THIOFLAVIN T], the Kd was determined as 2.56 µM⁻¹.

For the origin of these results see ChEMBL document CHEMBL1926592, “Synthesis and in vitro evaluation of fluorinated styryl benzazoles as amyloid-probes” (Bioorg Med Chem, 2011).
